# AlphaSeq binding of Ab-14 light chain variants to a spike HR2 peptide

Antigen: PDVDLGDISGINAS, a 14-residue peptide of the SARS-CoV-2 spike HR2 region.

The variants keep the heavy chain, the linker and the frameworks of Ab-14 (scFv order VH, three GGGGS repeats, VL).
VH: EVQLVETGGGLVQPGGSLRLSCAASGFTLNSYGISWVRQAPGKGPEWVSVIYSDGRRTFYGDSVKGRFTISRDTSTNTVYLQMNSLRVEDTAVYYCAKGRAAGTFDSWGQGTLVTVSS
VL: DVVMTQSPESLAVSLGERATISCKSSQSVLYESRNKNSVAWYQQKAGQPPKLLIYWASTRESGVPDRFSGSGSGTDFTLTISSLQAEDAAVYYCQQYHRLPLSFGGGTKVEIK

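The starting antibody came from a phage panning campaign against this peptide. Designed CDR sequences, proposed from the first random library and measured here. Group labels follow the data file (Ctrl: baseline library sampled from a position-specific scoring matrix, with some repeated check sequences; Rand: our label for a block that the file lists under HC and that is probably the random mutants of the ten best first-round binders; En: ensemble of fine-tuned language models; GP: Gaussian process model; HC: hill climbing; Gen: genetic algorithm; Gibbs: Gibbs sampling; a sequence that several methods proposed may carry one label only). The assay is AlphaSeq: two haploid yeast populations carry antibody and antigen on their surface. The frequency of each diploid, read from paired DNA barcodes, reflects how well the two displayed proteins bind. A regression on co-assayed BCL2-family reference pairs converts the normalised counts of each replicate to an apparent Kd. Each pool was mated in six replicate cultures.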

The parent's light chain CDRs are KSSQSVLYESRNKNSVA, WASTRES, QQYHRLPLS; each variant's own CDRs replace them letter for letter. Numbers give log10(Kd / nM), so 0 is 1 nM and 3 is 1 µM. Smaller is tighter. The mean shown is taken over the replicates in which the pair was detected. "no signal" marks a missing value. The strain was present, yet no cells mated with the target were sequenced in any replicate, which points to weak or no binding. The list is sorted by this average, lowest first, undetected variants last. Empty control strains, which show no peptide, gave a signal in 4% of pairings with all light chain designs; the median was 2.64 and 95% of these signals were weaker than 1.59. No background was subtracted. Values of this round are not directly comparable with the first-round values of the same sequences. In the paper, a design with two or fewer of six values counts as a poor binder.

| mean log10 Kd (nM) | detected | CDR-L1 | CDR-L2 | CDR-L3 | group |
|---|---|---|---|---|---|
| -0.46 | 6 of 6 | KLSQSDGYQARNKNSVA | HASQRED | QQYHRLPLS | GP_Gibbs |
| -0.44 | 6 of 6 | KISMTSENQLKNRNSVA | ELVTRMA | QQYNRLPLS | En_Gen |
| -0.40 | 6 of 6 | KLWQSELYESRNKNSVA | NASTRES | QQYHRLPLS | GP_Gen |
| -0.36 | 6 of 6 | YLSQSWLYESRNKNSVA | NASTRES | QQYHRLPLS | GP_Gen |
| -0.27 | 6 of 6 | KLPQSVLYESRNKNSVA | DASTRED | QSYHRLPLS | GP_HC |
| -0.23 | 6 of 6 | KIGMTLNQMMTKKNNVA | DLVERAN | QQYHRLPLS | En_Gen |
| -0.20 | 6 of 6 | HVSPSVEYESRNKNSVA | NASSRES | QQYHRLPLS | GP_HC |
| -0.20 | 6 of 6 | NMQMQQDRMQDAKQNVA | GVDMREE | QQYFRLPFL | En_Gibbs |
| -0.16 | 6 of 6 | KLRGSTLYESRNKNSVA | NASTRES | QQYHRLPLS | GP_HC |
| -0.16 | 6 of 6 | KLMQSELYESRNKNSVA | NASTRES | QQYHRLPLS | GP_Gen |
| -0.13 | 6 of 6 | MVTQMAMSGMTNKRSVA | NANTRED | QQYHRLPLM | En_Gen |
| -0.12 | 6 of 6 | KLMQSDLYESRMQNNVA | DASTRME | QQYHRLPLS | GP_Gibbs |
| -0.10 | 6 of 6 | SLMDNIWVEDTYRKAIA | DINVRAD | QQYHRLPLS | En_Gibbs |
| -0.09 | 6 of 6 | KLSQSVLYESRNSNSVA | DASQRES | QQYHRLPLS | GP_Gen |
| -0.09 | 6 of 6 | KSSQSELYESRNKNSVA | NASTRMS | QQYHRLPLS | GP_Gen |
| -0.09 | 6 of 6 | KLSQSMLYESRNKNSVA | DASTRES | QAYHRLPLS | GP_Gen |
| -0.08 | 6 of 6 | KSSQQYLYESRNKNSVA | GASTRES | QQYHRLPLS | GP_HC |
| -0.03 | 6 of 6 | KLDQGQLYESRNKNSVA | GASTRES | QQYHRLPLS | GP_HC |
| -0.01 | 6 of 6 | KSGQGELYESRNKNSVA | GASQRWS | QQYHRLPLS | GP_HC |
| 0.03 | 6 of 6 | KLSQATRMESRNKASVA | ENSTRED | QQYFRLPLS | En_HC |
| 0.03 | 6 of 6 | KWSMGVMGESRNKNSVA | NASTRES | QQYHRLPLS | GP_Gibbs |
| 0.08 | 6 of 6 | KLTMVQGTEKVRGNNVA | EMETREN | QQYNRLPLS | En_Gen |
| 0.10 | 6 of 6 | KLSQSWLYESRNKNSVA | QASTRES | QQYHRLPLA | Ctrl |
| 0.10 | 6 of 6 | SFGQTVMYESTMRNNVA | QTSTRES | QQYDRLPLS | En_HC |
| 0.17 | 6 of 6 | KLSQSMGYESRNKNSVA | HASTRES | QQYHRLPLS | GP_Gen |
| 0.19 | 6 of 6 | KLSQSALYESRNKNSVA | EASQRES | QQYHRLPLS | GP_Gen |
| 0.33 | 6 of 6 | KSYISGLYESRNKNSVA | EASTRES | QQYHRLPLS | GP_HC |
| 0.45 | 6 of 6 | KIGFTLNQLMHKKNNVA | DLVTREQ | QQYHRLPLS | En_Gen |
| 0.47 | 6 of 6 | KLSQSVLYESRMKNNVA | AASTRES | QQYHRLPLS | GP_Gen |
| 0.53 | 6 of 6 | KFLQSWLYESRNKNSVA | HASTREQ | QQYHRLPLS | GP_HC |
| 0.55 | 6 of 6 | MISQISSMGQFAKNSVA | QASTRNA | QQYDHLPLI | En_Gen |
| 0.55 | 6 of 6 | KFSQSVLYEPRTKNSVA | NASTRES | QQYHQLPLS | GP_HC |
| 0.60 | 6 of 6 | MFSQLVYTGEKTRNAVA | QASTREN | QQYHHLPLS | En_HC |
| 0.71 | 3 of 6 | ALSQSMDMTSRNKNSVA | DLSTRLN | QQYHRLPLS | En_HC |
| 0.72 | 6 of 6 | KLQFGNLYESRNQNSVA | KASTRLQ | QQYHRLPLS | GP_Gibbs |
| 0.76 | 6 of 6 | TLYGLSNSMSKEKNNVA | EMSTREN | QQYDRLPLV | En_Gen |
| 0.79 | 6 of 6 | KSSKSVLFESRNKNSVA | NASTREM | QQYHRLPLS | GP_HC |
| 0.81 | 6 of 6 | IITQSVMSESRNKRNVA | NTSEREP | QQYDRLPLI | En_HC |
| 0.82 | 6 of 6 | KQQMSVMMGSRNKNSVA | SASKREE | QQYHRLPLS | GP_Gibbs |
| 0.84 | 6 of 6 | KSSQSDLYESRNKNSVA | WASTRES | QQYSRLPLS | Ctrl |
| 0.92 | 6 of 6 | KSSGSYLEESRNKNSVA | EASTRES | QQYHRLPLS | GP_HC |
| 0.96 | 6 of 6 | TISQMTSLFSQSINNVA | EVSTREQ | QQYDRLPLM | En_Gen |
| 0.98 | 6 of 6 | MMSQVRGSGTRQRNNVA | QTSTREP | QQYDRLPLM | En_Gen |
| 1.12 | 6 of 6 | HITMGMYVHGRYKSNIA | QAETREK | QQYDRLPLI | En_Gen |
| 1.13 | 6 of 6 | KISGLVNFFGHAINSVA | EMVTREN | QQYDRLPLS | En_HC |
| 1.13 | 6 of 6 | KISFWSYPGSLWHNNIA | GGSQRAE | QQYSRLPLN | En_Gibbs |
| 1.21 | 6 of 6 | LMNERMEMGENQQHNIA | NAAHLVH | QDYHRLPLG | En_Gibbs |
| 1.34 | 6 of 6 | KISMMYRFEQTASNNIA | EMTTRAE | QFYHRLPLS | En_HC |
| 1.48 | 3 of 6 | KSSQSVLYESRNCNSVA | NASCRES | QQYHRLPLN | Ctrl |
| 1.53 | 6 of 6 | KLSVSWQFESIEHNSVA | ERSTRES | QDYNRLPLS | En_HC |
| 1.55 | 5 of 6 | KSSQSVLYESRNKNSVA | WASTRNS | QQYHRLPLS | Ctrl |
| 1.59 | 5 of 6 | HMSMLTLGGVRHKNSVA | QMTTREN | QQYDHLPLS | En_Gen |
| 1.64 | 6 of 6 | KIAATVLYESGSANSVA | QNSTRES | QQYHRLPLS | En_HC |
| 1.65 | 4 of 6 | KSSQSVLYESSNKNSVA | WASTRES | QQYHPLPLS | Ctrl |
| 1.76 | 6 of 6 | KLSMVTGHMSIEKNNVA | EMETREN | QQYDRLPLS | En_Gen |
| 1.98 | 2 of 6 | KLRQSTLYHSYNKNSVA | WASTRES | QQYKRLPLS | Rand |
| 2.24 | 3 of 6 | KSSQSVLYESRNKKSVA | WASTREF | QQYHRLPLS | Ctrl |
| 2.35 | 5 of 6 | IFSQSVLMGNLTRNSVA | QASTRFS | QQYHRLPLI | En_HC |
| no signal | 0 of 6 | KSSQSTLENSRNKNSVA | AASTRES | YQYHRLPLS | Ctrl |
| no signal | 0 of 6 | HVHMEMAIWKEILNNIA | DAQMRAA | QQYFRLPLG | En_Gibbs |
| no signal | 0 of 6 | KSGQSLLYESQNKNSAA | YASTRES | QQYHRLPLS | Ctrl |
| no signal | 0 of 6 | KSSQDVLYESRNKNSVW | WASTRES | QQYHRLPLS | Ctrl |
| no signal | 0 of 6 | KSSISYLYESRNKNSVA | AASTRES | QQYHRLPLS | GP_HC |
| no signal | 0 of 6 | KPSQSVLYEDRGKNSVA | WASTRES | QQYHRLPLS | Ctrl |
| no signal | 0 of 6 | MISMMHAMQYNEESSIA | DAEALNS | QQYHELPLS | En_Gibbs |

The opening 6 entries, copied out:

| CDR-L1 | CDR-L2 | CDR-L3 | group | mean log10 Kd (nM) | detected |
|---|---|---|---|---|---|
| KLSQSDGYQARNKNSVA | HASQRED | QQYHRLPLS | GP_Gibbs | -0.46 | 6 of 6 |
| KISMTSENQLKNRNSVA | ELVTRMA | QQYNRLPLS | En_Gen | -0.44 | 6 of 6 |
| KLWQSELYESRNKNSVA | NASTRES | QQYHRLPLS | GP_Gen | -0.40 | 6 of 6 |
| YLSQSWLYESRNKNSVA | NASTRES | QQYHRLPLS | GP_Gen | -0.36 | 6 of 6 |
| KLPQSVLYESRNKNSVA | DASTRED | QSYHRLPLS | GP_HC | -0.27 | 6 of 6 |
| KIGMTLNQMMTKKNNVA | DLVERAN | QQYHRLPLS | En_Gen | -0.23 | 6 of 6 |

Data: MIT Lincoln Laboratory AlphaSeq set, Li et al. 2023, doi:10.1038/s41467-023-39022-2, as distributed in FLAb.